Source: US9657092B2, “S100A4 antibodies and therapeutic uses thereof” (LYKERA BIOMED SA, priority 2010, dated 2017)

Tests used:
Human S100A1 = biological target: T1, Human S100A1 (Homo sapiens, UniProt P23297); experiment: ELISA specificity (reaction pattern of mAb); type: binding; design: key: ++++ positive reaction; − no reaction
T1 construct: purchased Abnova
T1 sequence (P23297 1-94): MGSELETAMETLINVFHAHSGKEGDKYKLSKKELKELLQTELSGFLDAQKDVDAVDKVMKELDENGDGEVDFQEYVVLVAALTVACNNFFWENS
Excerpt: Monoclonal antibodies 5C3, 1E2, 6B9, 8B6 and 5A3 were screened for cross-reaction against other members of the S100 family: recombinant human S100A1, S100A2, S100A6 (Abnova), recombinant human S100A7, S100P (cloned from the MDA-MD-468 breast adenocarcinoma cell line and from the HeLa cervix adenocarcinoma cell line, respectively, at Leitat Biomed Division), and recombinant murine S100A4 (cloned from the NIH/3T3 mouse embryo fibroblast adenocarcinoma cell line at Leitat Biomed Division). The immunoglobulin isotype for monoclonal antibodies against S100A4 were determined using the Mouse immunoglobulin subtyping kit (Sigma).

MiaPACA-2 tumors = experiment: MiaPACA-2 subcutaneous xenograft tumor development; type: in vivo, nude mice; settings: MiaPACA-2, 25 mg/kg i.p. three times a week, day 30
Experimental: (§1) MiaPACA-2 human pancreatic adenocarcinoma cell line and HCT116 human colorectal adenocarcinoma cell line in exponential growth were harvested with trypsin-EDTA (0.05%/0.02%) (Invitrogen), washed, and examined for viability by trypan blue dye exclusion. Viability was greater than 95%. For primary tumor growth, cells (either 5×10^6 or 1×10^6 cells for MiaPACA-2 or HCT116 respectively in 0.1 mL DMEM high glucose) were subcutaneously injected into the flanks of nude mice. Tumor volumes between 65-160 mm^3 for MiaPACA-2 and volumes between 155-370 mm^3 for HCT116 were used to divide the mice into two groups of either ten mice each (MiaPACA-2) or seven mice each (HCT116), such that the mean tumor size was equal between groups (approximately 100 mm^3 for MiaPACA-2 or 220 mm^3 for HCT116). Tumor growth was followed by measuring tumor diameters with calipers and the tumor volume was calculated using an approximated formula for a prolate ellipsoid: volume=(D×d^2)/2 where D is the longest axis of the tumor and d the shortest. Mice were treated either with vehicle (PBS) or with the antibody, i.p. three times per week at 25 mg/Kg/100 μL of sterile PBS, starting the treatment at defined tumor volume (100 mm^3 and 220 mm^3). At the end of the experiment animals were killed, tumors were surgically removed, weighed and half tumor were embedded in OCT compound for subsequent CD31 immunostaining analyses and the other half tumor were fixed in formaldehyde for subsequent analyses. Blood samples from animals bearing MiaPACA-2 or HCT116 tumors were collected at the end of the experiment (all animals), using EDTA-coated material. Immediately after, plasma samples were centrifuged for 10 min at 5000 rpm, at room temperature and stored at −20° C. until analysis.
(§2) Comparisons between groups were made using the two-tailed nonparametric Mann Whitney U test. Differences for which P value was less than 0.05 were considered statistically significant.
(§3) Xenografts were implanted and grown, tumor-bearing animals randomly assigned and treated as described above. […]

HCT116 tumors = experiment: HCT116 subcutaneous xenograft tumor development; type: in vivo, nude mice; settings: HCT116, 25 mg/kg i.p. three times a week, day 21
Experimental: as §1, §2, §3

B1: 5C3: mouse monoclonal anti-S100A4 antibody, IgG1, from hybridoma ECACC 10022401; VL SEQ ID NO: 1, VH SEQ ID NO: 2 (antibody, V domains shown)
VH: EAQLQQSGAELVKPGASVKLSCTASGFNIQETYMHWVKQRPEQGLEWIGRIDPANGNTKDDPKFQGKASITVDTSSNTAYLQLSSLTSEDTAVYYCASSYAMDYWGQGTSVTVSS
VL: DVLMTQTPLSLPVSLGDQASISCRSSQSIVHSNGNTYLEWYLQKTGQSPELLIYKVSNRLSGVPDRFSGSGSGTDFTLKISRVEAEDLGVYYCFQGSHVPFTFGSGTKLEIK
modifications: VH region of the 5C3 monoclonal antibody; VL region of the 5C3 monoclonal antibody
Human S100A1
  Reaction Pattern of mAb in ELISA, Human S100A1: −
MiaPACA-2 tumors
  T/C ratio of tumor volume: 46%
  T/C ratio of tumor weight: 38%
  maximum mean relative tumor volume respect to the initial volume: 274%
HCT116 tumors
  T/C ratio of tumor volume: 91%
  T/C ratio of tumor weight: 74%
  maximum mean relative tumor volume respect to the initial volume: 511%
